This is a sample that favours compounds with a hit; in the whole collection about 2.8% have one here.
PglD DTNB: inhibitors of Campylobacter jejuni PglD acetyltransferase; AID 602405; inhibition, % at 12.5 µM; 360,000 tested, 0.098% active; purified PglD enzyme, DTNB colorimetric CoA detection; in the data active = inhibition above about 16%, passing the limit was not always enough; inconclusive = no clear call, values can overlap the other calls
MITF act: activators of MITF-driven TRPM1 promoter activity in SK-MEL-5 cells. SK-MEL-5 TRPM1-promoter luciferase, 24 h; % of positive control, neutral wells = 0. activation, % at 12.5 µM. 300,000 tested, 0.75% active. AID 588334;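 active = mean activation of at least 80% with every replicate also reaching 80%; inconclusive = mean reaches 80% but some replicate falls short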;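 note: 0% = neutral control wells and 100% = parthenolide positive control wells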
UUG fidelity: alters start codon recognition fidelity in yeast; S. cerevisiae UUG-firefly luciferase reporter, luminescence/redox ratio; activity score, % at 18.7 µM; hit rate 0.13% among 350,000;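 active = replicate mean at a twofold rise or more, about +100% in these data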;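 also: firefly luciferase made from a UUG start codon reports start codon fidelity; reporter light over untreated wells divided by growth signal over untreated wells; some hits fall short of that in this replicate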
miR-122 sensor: inhibitors of miR-122 in Huh7 cells; Huh7 miR-122 Renilla luciferase sensor, 48 h; neutral wells = 0, positive control = 100; activation (reporter increase), % at 12.5 µM; 340,000 tested, 0.3% active;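 active = mean replicate activation score at least 90 and every replicate individually at or above 90; inconclusive = only one of the two criteria met; inactive = neither criterion met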;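 note: higher luciferase means less miR-122 activity so hits act as miR-122 inhibitors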
Wnt bcat act: activators of Wnt/beta-catenin signaling | Wnt/beta-catenin reporter cell assay, activator, plate reader | activation, % at 9.35 µM | 300,000 tested, 1.2% active; in the data active = activation above about 30%, passing the limit was not always enough; inconclusive = no clear call, values can overlap the other calls;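 note: 0% = neutral control wells and 100% = positive control wells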
esBAF inh: blocks esBAF chromatin remodeling in mouse ES cells | AID 602393 | Bmi1-luciferase knock-in reporter, 24 h; 100% = twice the neutral-well signal | 350,000 tested, 2% active | reporter increase, % at 12.5 µM; in the data active = activation above about 40%; inconclusive = no clear call, values can overlap the other calls;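 note: 0% = median of the plate's neutral control wells and 100% = double that signal; a rise in the Bmi1 reporter signal indicates esBAF inhibition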
The depositor's hits bear a star; ? = inconclusive; nt = not tested or not shown; [ ] = another dose, or the depositor's remark.

no. | PglD DTNB | MITF act | UUG fidelity | miR-122 sensor | Wnt bcat act | esBAF inh | SMILES
1 | -4.0 | nt | 3.6 | -8.5[16.7 µM] | nt | -2.9 | O=C(C[C@@H]1C=C[C@H](NC(=O)Nc2ccc(C(F)(F)F)cc2)[C@@H](CO)O1)NCc1cccc(F)c1
2 | nt | 63.9 | nt | -4.1 | nt | 43.3* | COc1cccc(N2CCN(c3ncccn3)CC2)c1
3 | 6.0 | nt | -22.4 | -1.4 | 7.0 | 50.3* | c1ccc2c(c1)COc1c3ncccc3nn1-2
4 | -5.9 | 5.7 | -15.4 | 2.0 | nt | 1.3 | OCCCCNCc1ccc(OCc2ccc(Cl)cc2Cl)cc1
5 | nt | 23.7 | nt | -7.4 | 33.8* | 18.1 | OCCNCc1ccc(OCc2ccc(Cl)cc2Cl)cc1
6 | 3.1 | 7.3 | -21.1 | -8.8 | 28.4 | -4.7 | CCS(=O)(=O)N1Cc2ccccc2CC1C(=O)NC(C)C12CC3CC(CC(C3)C1)C2 (stereo not drawn)
7 | 5.8 | nt | 0.3 | 256.2* | -3.2 | -5.4 | CCS(=O)(=O)N1Cc2ccccc2CC1C(=O)NCC12CC3CC(CC(C3)C1)C2 (stereo not drawn)
8 | -6.8 | 41.3 | -1.1 | 6.1 | 28.8 | 44.5* | COc1ccc(S(=O)(=O)N2Cc3ccccc3CC2C(=O)Nc2nccs2)cc1OC (stereo not drawn)
9 | nt | 19.6 | nt | nt | 4.8 | nt | CCS(=O)(=O)N1Cc2ccccc2CC1C(=O)Nc1nc(C)cs1 (stereo not drawn)
10 | 3.7 | 44.0 | -8.8 | 10.1 | nt | 50.4* | COc1ccc(S(=O)(=O)N2Cc3ccccc3CC2C(=O)Nc2nccs2)cc1 (stereo not drawn)
11 | nt | 29.2 | nt | -4.0 | 25.8 | 43.7* | CCS(=O)(=O)N1Cc2ccccc2CC1C(=O)Nc1nccs1 (stereo not drawn)
12 | -3.4 | 4.0 | -19.0 | -0.2 | -1.2 | nt | COc1ccc(S(=O)(=O)N2CCC(C(=O)Nc3nccs3)CC2)cc1

Reformatted: results already given.
The line under a structure holds: PglD DTNB, MITF act, UUG fidelity, miR-122 sensor, Wnt bcat act, esBAF inh
2: COc1cccc(N2CCN(c3ncccn3)CC2)c1
→ nt, 63.9, nt, -4.1, nt, 43.3*
3: c1ccc2c(c1)COc1c3ncccc3nn1-2
→ 6.0, nt, -22.4, -1.4, 7.0, 50.3*
4: OCCCCNCc1ccc(OCc2ccc(Cl)cc2Cl)cc1
→ -5.9, 5.7, -15.4, 2.0, nt, 1.3
5: OCCNCc1ccc(OCc2ccc(Cl)cc2Cl)cc1
→ nt, 23.7, nt, -7.4, 33.8*, 18.1
6: CCS(=O)(=O)N1Cc2ccccc2CC1C(=O)NC(C)C12CC3CC(CC(C3)C1)C2 (stereo not drawn)
→ 3.1, 7.3, -21.1, -8.8, 28.4, -4.7

Continuation.
no. | PglD DTNB | MITF act | UUG fidelity | miR-122 sensor | Wnt bcat act | esBAF inh | SMILES
13 | -3.0 | nt | -11.0 | -5.0[16.7 µM] | nt | 4.5 | COc1ccc(S(=O)(=O)N(C)C[C@H]2OCCCC[C@@H](C)Oc3ccc(NC(=O)c4ccccc4)cc3C(=O)N([C@H](C)CO)C[C@@H]2C)cc1
14 | 5.1 | nt | -1.6 | -1.3[16.7 µM] | nt | 2.5 | C[C@H](CO)N1C[C@H](C)[C@@H](CN(C)Cc2ccc(Cl)c(Cl)c2)Oc2ccc(NC(=O)NC3CCCCC3)cc2CC1=O
15 | 10.2 | 15.6 | -12.8 | 4.7 | 2.0 | 10.7 | O=C(N/N=C/c1ccncc1)c1sc2ccccc2c1Cl
16 | 0.9 | 6.3 | -30.8 | nt | 0.5 | 55.3* | O=C(N/N=C/c1ccc[nH]1)c1sc2ccccc2c1Cl
17 | 2.9 | 14.1 | -16.1 | 3.0 | 1.4 | 26.2 | O=C(N/N=C/c1ccncc1)c1cc2ccccc2cc1O
18 | -1.1 | 32.3 | -21.3 | 1.9 | 7.9 | 52.8* | O=C(N/N=C/c1ccc[nH]1)c1cc2ccccc2cc1O
19 | 0.7 | nt | nt | -6.6[16.7 µM] | nt | -5.8 | O=C(C[C@@H]1C[C@H]2c3cc(NC(=O)Cc4ccncc4)ccc3O[C@H]2[C@@H](CO)O1)NCCN1CCCCC1
20 | 3.3 | nt | 22.8 | 2.9[16.7 µM] | nt | -0.4 | C[C@@H]1CCCCO[C@H](CN(C)Cc2ccc3c(c2)OCO3)[C@H](C)CN([C@H](C)CO)C(=O)c2cc(NC(=O)C3CCCCC3)ccc2O1
21 | 5.1 | nt | -4.2 | 228.6*[16.7 µM] | nt | 0.8 | COc1cccc(C(=O)N2C[C@H]3[C@@H](c4ccccc42)[C@@H](CO)N3C(=O)c2ccc(F)cc2)c1
22 | -1.1 | nt | 12.0 | 12.2[16.7 µM] | nt | 0.1 | COc1ccc(C(=O)N2C[C@@H]3[C@H](c4ccccc42)[C@H](CO)N3C(=O)c2ccc(F)cc2)cc1
23 | -4.2 | nt | -10.8 | 10.0[16.7 µM] | nt | 49.2* | O=C(Nc1ccccc1F)N1C[C@@H]2[C@H](c3ccccc31)[C@@H](CO)N2C(=O)C1CC1
24 | -1.5 | nt | 6.4 | 240.3*[16.7 µM] | nt | 22.3 | O=C(Nc1ccccc1F)N1C[C@H]2[C@@H](c3ccccc31)[C@@H](CO)N2C(=O)c1ccc(F)cc1

The list continues:
no. | PglD DTNB | MITF act | UUG fidelity | miR-122 sensor | Wnt bcat act | esBAF inh | SMILES
25 | 0.4 | nt | 9.2 | -1.2[16.7 µM] | nt | 0.1 | C[C@H]1CN([C@@H](C)CO)C(=O)Cc2cc(NS(C)(=O)=O)ccc2O[C@H]1CN(C)S(=O)(=O)c1ccccc1
26 | -4.2 | nt | -8.6 | 1.6[16.7 µM] | nt | -0.9 | C[C@H]1CN([C@@H](C)CO)C(=O)Cc2cc(NC(=O)Cc3ccccc3)ccc2O[C@@H]1CN(C)C
27 | -3.4 | -10.0 | 4.0 | -2.2 | nt | -0.9 | CN1CC(c2ccccc2)C2(SC(=S)N(Cc3ccco3)C2=O)C12C(=O)Nc1ccccc12 (stereo not drawn)
28 | -0.3 | nt | -9.3 | 295.3* | -1.2 | 3.6 | Cc1ccc(C2CN(C)C3(C(=O)Nc4ccccc43)C23COc2ccccc2C3=O)cc1 (stereo not drawn)
29 | -5.2 | -5.8 | -3.3 | 116.5* | -2.6 | -2.4 | CN1CC(c2ccccc2Cl)C2(COc3ccccc3C2=O)C12C(=O)Nc1ccccc12 (stereo not drawn)
30 | 3.7 | 9.9 | -24.0 | 0.2 | nt | 35.2 | COCCCN1C(=O)c2ccc(C(=O)Nc3cccc(OC)c3)cc2C1=O
31 | 4.4 | 2.2 | -24.8 | nt | 26.8 | 44.0* | CC(=O)Oc1cccc(NC(=O)c2ccc3c(c2)C(=O)N(CC(C)C)C3=O)c1
32 | -1.5 | 0.8 | -35.9 | 7.5 | 47.1* | 50.2* | Cc1cc2n(n1)SC(Nc1cccc3ccccc13)N2 (stereo not drawn)
33 | -1.8 | nt | nt | nt | nt | -2.9 | CO[C@@H]1CN(C)C(=O)c2cc(NS(=O)(=O)c3cn(C)cn3)ccc2OC[C@@H](C)N(CC2CC2)C[C@@H]1C
34 | -0.5 | nt | 13.7 | 6.1[16.7 µM] | nt | -1.4 | C[C@@H]1CN([C@H](C)CO)C(=O)Cc2cc(NC(=O)Nc3ccccc3)ccc2O[C@@H]1CN(C)Cc1ccc(Oc2ccccc2)cc1
35 | 2.1 | 51.3 | -25.8 | -12.6 | 4.5 | 46.3* | Fc1ccc(-c2csc(N3CCSCC3)n2)cc1
36 | -0.7 | nt | 11.1 | -5.2[16.7 µM] | nt | 1.1 | C[C@@H]1CCCCO[C@@H](CN(C)Cc2ccccc2)[C@H](C)CN([C@@H](C)CO)C(=O)c2cc(NC(=O)Cc3ccccc3)ccc2O1

The list continues:
no. | PglD DTNB | MITF act | UUG fidelity | miR-122 sensor | Wnt bcat act | esBAF inh | SMILES
37 | nt | -11.3 | -17.3 | 55.1 | nt | -0.3 | Cn1cc(S(=O)(=O)CC(=O)Nc2ccc3c(c2)OCO3)c2ccccc21
38 | -1.2 | 75.6 | -5.5 | 9.2 | 38.4* | 56.1* | O=C(CSc1nnnn1-c1ccc(Cl)cc1)NC(=O)Nc1ccc2c(c1)OCCO2
39 | 4.7 | 48.1 | -3.1 | nt | 17.4 | 29.0 | CC(=O)Nc1ccc(NC(=O)C(C)Sc2nnc(-c3ccc4c(c3)OCO4)o2)cc1 (stereo not drawn)
40 | 6.9 | ? | -12.8 | 2.1 | nt | 46.2* | COc1ccc(-c2nnc(SC(C)C(=O)Nc3ccc4c(c3)OCCO4)o2)cc1 (stereo not drawn)
41 | nt | 17.9 | nt | nt | 4.2 | 49.3* | O=C(CSc1nccn(-c2ccc3c(c2)OCCO3)c1=O)Nc1ccccc1
42 | nt | 6.2 | nt | nt | 3.5 | nt | Cc1ccc(NC(=O)CSc2nccn(-c3ccc4c(c3)OCCO4)c2=O)cc1
43 | 1.9 | nt | -4.1 | 75.6 | 34.8* | 7.9 | CCn1cc(S(=O)(=O)CC(=O)Nc2ccc3c(c2)OCO3)c2ccccc21
44 | 2.3 | nt | 11.5 | 14.0[16.7 µM] | nt | 1.3 | C[C@@H]1CCCCO[C@H](CN(C)C(=O)CCC(F)(F)F)[C@@H](C)CN([C@@H](C)CO)C(=O)c2cc(NC(=O)Nc3ccccc3)ccc2O1
